Columns and labels:
hnRNPA1 = assay: DPR aggregation assay and western blot, hnRNPA1; type: biochemical, human; details: normalized to untreated HEK cells on the same membrane
Method: (§1) Supernatant and pellet fractions (for all 5 DPRs, and control/buffer only) were prepared as in the nuclear transport assays, by adding 100 µM 10mers to 2.5 mg/ml HEK lysate in 100 µL TRB. Supernatants were boiled in Laemmli (BioRad) for 5 min. Pellets were boiled for 15 min followed by sonication in order to fully disperse aggregates for SDS-PAGE. Equal volumes of supernatant and pellet fractions were run on 4–12% Bolt Bis-Tris Plus gels (ThermoFisher), transferred to nitrocellulose membrane using an iBlot2 dry blotting system (ThermoFisher). Protein loading was analyzed by BLOT-Faststain (G-biosciences, St. Louis, MO), according to the manufacterers’ instructions. For immunodetection, membranes were blocked with 5% non-fat milk in TBST and probed by sequential incubation with the primary antibodies as detailed in the table below. Detection was by HRP-conjugated secondary antibodies/chemiluminescence using an ImageQuant LAS 4000 system (GE, Chicago, IL). To permit sequential probing of membranes without stripping, signals were quenched by incubation with prewarmed 30% H20_2 for 20 min ([Sennepin et al., 2009]). Band intensities were measured by ImageQuant software. For pellet vs. supernatant fractions, all were expressed as percent untreated control. For blots in Figure 1E, samples were run on 4–20% SDS PAGE minigels (ThermoFisher) and blotted to PVDF membranes (Immun-Blot PVDF, Bio-Rad) using the Bio-Rad TransBlot Turbo apparatus, and probed as above. The chemiluminescence signal was captured with a Bio-Rad ChemiDoc XRS+ digital imaging system.

The chains behind the UniProt entries cited, without tags or fusion partners.
UniProt Q14974, whole entry: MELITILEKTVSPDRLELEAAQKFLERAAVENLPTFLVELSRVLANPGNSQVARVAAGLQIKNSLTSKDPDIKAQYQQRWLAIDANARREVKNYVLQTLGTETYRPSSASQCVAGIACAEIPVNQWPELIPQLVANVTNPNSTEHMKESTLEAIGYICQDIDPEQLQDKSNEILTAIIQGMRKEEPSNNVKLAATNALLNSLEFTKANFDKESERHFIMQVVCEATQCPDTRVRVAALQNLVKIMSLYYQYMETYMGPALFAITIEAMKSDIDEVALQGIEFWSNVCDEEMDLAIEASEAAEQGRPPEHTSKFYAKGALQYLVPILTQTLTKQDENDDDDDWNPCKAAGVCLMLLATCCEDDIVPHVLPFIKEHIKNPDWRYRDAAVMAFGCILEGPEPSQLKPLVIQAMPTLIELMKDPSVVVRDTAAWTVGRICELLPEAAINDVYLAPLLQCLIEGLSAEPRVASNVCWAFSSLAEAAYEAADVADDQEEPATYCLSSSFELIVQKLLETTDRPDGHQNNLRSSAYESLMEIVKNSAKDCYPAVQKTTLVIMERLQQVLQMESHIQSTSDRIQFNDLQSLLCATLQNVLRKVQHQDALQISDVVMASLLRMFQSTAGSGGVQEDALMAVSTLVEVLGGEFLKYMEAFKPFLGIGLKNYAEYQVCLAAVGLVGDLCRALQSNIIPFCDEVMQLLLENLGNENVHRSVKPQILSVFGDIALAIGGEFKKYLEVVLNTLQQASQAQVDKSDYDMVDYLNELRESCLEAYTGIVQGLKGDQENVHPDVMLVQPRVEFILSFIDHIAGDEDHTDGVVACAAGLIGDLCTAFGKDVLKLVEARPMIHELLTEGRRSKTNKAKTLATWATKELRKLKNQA

[1] = biological target: importin β-mediated nuclear import of Rango (Homo sapiens, UniProt Q14974); assay: Permeabilized cell nuclear import assay, Rango, mouse primary cortical neurons; type: cell-based; details: 30 min, up to 100 µM
Source text: All animal procedures were approved by the Johns Hopkins Animal Care and Use Committee. Timed pregnant C57BL/6J females (Jackson Laboratory, Bar Harbor, ME) were sacrificed by cervical dislocation at E16, cortex dissociated, and cells plated at 50,000/well on poly-D-lysine/laminin-coated, optical glass-bottom 96-well plates. Growth medium consisted of Neurobasal supplemented with B27, Glutamax, and penicillin/streptomycin (Gibco/ThermoFisher). At 5–7 days in vitro, neurons were rinsed in prewarmed PBS and permeabilized for 4 min. at 37° in a hypotonic solution containing […] Tris-HCl pH 7.5 (to cause osmotic swelling) and 50–150 mg/ml BSA (for molecular crowding/mechanical support). Following permeabilization, cells were placed on ice and rinsed 2 × 5 min in transport buffer (TRB, 20 mM HEPES, 110 mM KOAc, 2 mM Mg(OAc)2, 5 mM NaOAc, 0.5 mM EGTA, 250 mM sucrose, pH 7.3, with protease inhibitor cocktail). […]
Concentrated whole cell lysates were prepared from HEK293T cells (ATCC, mycoplasma negative and validated by STR profiling), grown in 150 mm dishes and sonicated on ice in 1X TRB in the presence of protease inhibitor cocktail (Roche). […] RNA concentration was measured by Nanodrop (ThermoFisher), and all 260/280 ratios were verified to be > 2.0. […]
For a subset of neuron transport assays, transport was monitored live via time lapse imaging every 5 min for 30 min. […]

Nup133 = assay: DPR aggregation assay and western blot, Nup133; type: biochemical, human; details: 100 µM 10mer in 2.5 mg/ml HEK lysate, normalized to untreated HEK
Method: as §1

transportin-1 (Tnpo1) = assay: DPR aggregation assay and western blot, Tnpo1; type: biochemical, human; details: for Tnpo1 band density, Pellet / Tnpo1 band density, Supernatant: 100 µM 10mer in 2.5 mg/ml HEK lysate, normalized to untreated HEK; for TNPO1 band density, % untr control: Fig 5-suppl 3C, normalized to untreated HEK on same membrane;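 for TNPO1 band density, % untr control: RNA rows contain added 20 µg total HEK RNA while no-RNA rows lack it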
Method: as §1

N=C(N)NCCC[C@H](NC(=O)CNC(=O)[C@H](CCCNC(=N)N)NC(=O)CNC(=O)[C@H](CCCNC(=N)N)NC(=O)CNC(=O)[C@H](CCCNC(=N)N)NC(=O)CNC(=O)[C@H](CCCNC(=N)N)NC(=O)CNC(=O)[C@H](CCCNC(=N)N)NC(=O)CNC(=O)[C@H](CCCNC(=N)N)NC(=O)CNC(=O)[C@H](CCCNC(=N)N)NC(=O)CNC(=O)[C@H](CCCNC(=N)N)NC(=O)CNC(=O)[C@H](CCCNC(=N)N)NC(=O)CN)C(=O)O [GR10]
hnRNPA1 band density, % control (hnRNPA1; Pellet, Blot 1): 289.8 % control | hnRNPA1 band density, % control (hnRNPA1; Pellet, Blot 2): 369.6 % control | hnRNPA1 band density, % control (hnRNPA1; Supernatant, Blot 1): 84.7 % control | hnRNPA1 band density, % control (hnRNPA1; Supernatant, Blot 2): 67.3 % control | Effect on Rango import, time-lapse imaging [1]: dose-dependent inhibition of transport | Nup133 band density, Pellet (Nup133; Blot 1): 281.4 % control | Nup133 band density, Supernatant (Nup133; Blot 1): 45.5 % control | Nup133 band density, Pellet (Nup133; Blot 2): 251.6 % control | Nup133 band density, Supernatant (Nup133; Blot 2): 41.4 % control | Tnpo1 band density, Pellet (transportin-1 (Tnpo1); Blot 1): 291.6 % control | Tnpo1 band density, Supernatant (transportin-1 (Tnpo1); Blot 1): 81.9 % control | Tnpo1 band density, Pellet (transportin-1 (Tnpo1); Blot 2): 442.1 % control | Tnpo1 band density, Supernatant (transportin-1 (Tnpo1); Blot 2): 67.8 % control | TNPO1 band density, % untr control (transportin-1 (Tnpo1); Pellet, RNA, blot 1): 141.85% | TNPO1 band density, % untr control (transportin-1 (Tnpo1); Pellet, RNA, blot 2): 159.15% | TNPO1 band density, % untr control (transportin-1 (Tnpo1); Pellet, no RNA (Untreated), blot 1): 195.11% | TNPO1 band density, % untr control (transportin-1 (Tnpo1); Pellet, no RNA (Untreated), blot 2): 212.81% | TNPO1 band density, % untr control (transportin-1 (Tnpo1); Supernatant, RNA, blot 1): 79.24% | TNPO1 band density, % untr control (transportin-1 (Tnpo1); Supernatant, RNA, blot 2): 126.57% | TNPO1 band density, % untr control (transportin-1 (Tnpo1); Supernatant, no RNA (Untreated), blot 1): 51.45% | TNPO1 band density, % untr control (transportin-1 (Tnpo1); Supernatant, no RNA (Untreated), blot 2): 120.00%

From article PMC7051184, “C9orf72 arginine-rich dipeptide repeat proteins disrupt karyopherin-mediated nuclear import” (eLife, 2020)
